scFv variants of Ab-14 (light chain) against a SARS-CoV-2 spike peptide

All variants were tested on one target, the spike HR2 peptide PDVDLGDISGINAS (SARS-CoV-2).

The variants keep the heavy chain, the linker and the frameworks of Ab-14 (scFv order VH, three GGGGS repeats, VL).
VH: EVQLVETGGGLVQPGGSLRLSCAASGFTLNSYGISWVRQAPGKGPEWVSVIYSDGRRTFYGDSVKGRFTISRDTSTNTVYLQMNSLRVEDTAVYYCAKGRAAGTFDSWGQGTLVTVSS
VL: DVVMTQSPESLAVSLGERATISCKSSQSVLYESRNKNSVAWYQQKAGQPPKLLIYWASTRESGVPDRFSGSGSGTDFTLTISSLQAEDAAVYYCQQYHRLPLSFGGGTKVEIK

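The parent was found by panning a naive human phage display library on the peptide. In library AAYL50, one, two or three CDR residues were substituted; doubles and triples were drawn at random. Affinity was read by AlphaSeq, a pooled yeast mating assay with surface-displayed partners. Mating (16 h, 30 °C) was followed by selection of diploids and sequencing of their barcodes. The ratio of observed to expected reads was calibrated, replicate by replicate, on BCL2-family standards whose Kd was known from biolayer interferometry. Each pool was mated in three replicate cultures.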

Changes read parent residue, position, new residue, counted from the first residue of the VL shown.
Every variant below is changed at R99 of the VL (sequential numbering).
Kd is apparent (estimated from mating counts) and averaged on the log scale over replicates with a signal. Smaller is tighter.
"no signal" marks a missing value. The strain was present, yet no cells mated with the target were sequenced in any replicate, which points to weak or no binding.

Variant L30P/S38D/R99K showed 54 nM (3 of 3 replicates). Variant R34I/W56Y/R99M gave 28 nM (3 of 3 replicates). For R99C, the assay gave 430 nM (1 of 3 replicates). Variant Y97L/R99G showed no signal (0 of 3 replicates). Variant A40P/R99P/S103R gave no signal (0 of 3 replicates). Variant Q95F/R99T showed 15 nM (3 of 3 replicates).

For K36H/W56D/R99G, the assay gave 940 pM (3 of 3 replicates). For N37S/R99D, the assay gave 540 nM (3 of 3 replicates). Variant S25Y/Y97N/R99E showed no signal (0 of 3 replicates). Variant S25Q/N37A/R99L showed 45 nM (3 of 3 replicates). For Q27V/V29I/R99F, the assay gave 3.4 µM (3 of 3 replicates). With S38W/S58M/R99M the result was 21 µM (2 of 3 replicates).

For A40T/T59W/R99M, the assay gave no signal (0 of 3 replicates). Variant S38L/R99P/L102N gave 18 µM (2 of 3 replicates). For S33P/H98V/R99I, the assay gave 7.7 nM (3 of 3 replicates). Variant V39T/T59A/R99F gave no signal (0 of 3 replicates). With S38N/R99I/P101F the result was 360 µM (1 of 3 replicates). Variant V29W/N35L/R99W gave no signal (0 of 3 replicates).

Variant S28F/Y97W/R99A gave no signal (0 of 3 replicates). Variant S28G/W56Y/R99L gave 17 nM (3 of 3 replicates). With K24L/Q95W/R99L the result was no signal (0 of 3 replicates). With N37M/R99I the result was 1.3 µM (3 of 3 replicates). Variant K36C/A40D/R99H showed no signal (0 of 3 replicates). For Q27V/V39R/R99A, the assay gave 4.9 µM (1 of 3 replicates).

With S38W/R99S/L102H the result was no signal (0 of 3 replicates). With S25I/N37Q/R99A the result was 4.3 nM (3 of 3 replicates). For A40N/S62F/R99Y, the assay gave 22 µM (3 of 3 replicates). Variant S26H/R99N/L100R gave 96 µM (1 of 3 replicates). Variant K24E/R99P gave no signal (0 of 3 replicates). For R60M/Q95M/R99W, the assay gave 2.4 µM (2 of 3 replicates).

Variant S38N/S62L/R99P gave no signal (0 of 3 replicates). Variant N35Q/A40L/R99P showed 100 µM (1 of 3 replicates). Variant S33D/E61K/R99L gave 1.0 µM (3 of 3 replicates). Variant V39F/R99L/S103Y gave 240 nM (1 of 3 replicates). For V39P/Y97W/R99D, the assay gave no signal (0 of 3 replicates). Variant L30G/Y31N/R99S showed 3.5 nM (3 of 3 replicates).

For N37E/W56D/R99D, the assay gave 5.9 nM (3 of 3 replicates). With R34C/N35S/R99I the result was no signal (0 of 3 replicates). Variant S38M/A40D/R99C showed no signal (0 of 3 replicates). Variant S26E/R99H showed 20 nM (3 of 3 replicates). Variant S28L/R99E gave 260 nM (3 of 3 replicates). Variant A57C/R60Q/R99A showed no signal (0 of 3 replicates).

Top 7 of the variants detected in all replicates, tightest first:

{"changes": "K36H/W56D/R99G", "Kd (apparent)": "940 pM", "seen in": "3 of 3"}
{"changes": "L30G/Y31N/R99S", "Kd (apparent)": "3.5 nM", "seen in": "3 of 3"}
{"changes": "S25I/N37Q/R99A", "Kd (apparent)": "4.3 nM", "seen in": "3 of 3"}
{"changes": "N37E/W56D/R99D", "Kd (apparent)": "5.9 nM", "seen in": "3 of 3"}
{"changes": "S33P/H98V/R99I", "Kd (apparent)": "7.7 nM", "seen in": "3 of 3"}
{"changes": "Q95F/R99T", "Kd (apparent)": "15 nM", "seen in": "3 of 3"}
{"changes": "S28G/W56Y/R99L", "Kd (apparent)": "17 nM", "seen in": "3 of 3"}

Empty control strains, which show no peptide, gave a signal in 18% of pairings with library AAYL50; the median was 15 µM and 95% of these signals were weaker than 970 nM. No background was subtracted.

Source: Engelhart et al. 2022 (doi:10.1038/s41597-022-01779-4), MIT Lincoln Laboratory and A-Alpha Bio; data file from the FLAb repository.